Consider two compounds from ChEMBL document CHEMBL1124172 (J Med Chem, 1988).

In brackets after ≈: the same amount, converted by molar mass.

One may read the T/C as the result in the treated group divided by that in the control group, in per cent. Usually IC50 stands for the concentration at which inhibition is half-maximal. The low end stands for greater potency, the high end for weaker potency.

Series [1] has as its system Mus musculus. The series is described as follows: In vivo antitumor activity against P388 Lymphocytic Leukemia measured as Survivors on day 5 at 129 mg/kg; 6/6.
The test system of series [2] is Mus musculus. The series can be described thus: In vivo antitumor activity against P388 Lymphocytic Leukemia measured as Survivors on day 5 at 16.13 mg/kg; 6/6.
Series [3] has as its system Mus musculus. The series can be described thus: In vivo antitumor activity against P388 Lymphocytic Leukemia measured as Survivors on day 5 at 32.25 mg/kg; 6/6.
The test system of series [4] is Mus musculus. The series can be described thus: In vivo antitumor activity against P388 Lymphocytic Leukemia in mice at 32.25 mg/kg expressed as T/C value.
The subject of series [5] is Mus musculus. The series can be described thus: In vivo antitumor activity against P388 Lymphocytic Leukemia in mice at 129 mg/kg expressed as T/C value.
The test system of series [6] is Mus musculus. The series is described as follows: In vivo antitumor activity against P388 Lymphocytic Leukemia in mice at 16.13 mg/kg expressed as T/C value.
The subject of series [7] is Mus musculus. The series is described as follows: In vivo antitumor activity against P388 Lymphocytic Leukemia measured as Survivors on day 5 at 64.5 mg/kg; 5/6.
The subject of series [8] is Mus musculus. The series can be described thus: In vivo antitumor activity against P388 Lymphocytic Leukemia in mice at 64.5 mg/kg expressed as T/C value.
The subject of a further series is A204. The series is described as follows: In vitro cytotoxicity against human A204 Rhabdomyosarcoma cell line. Type of series: functional, cell-based. Put shortly:
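A204 human rhabdomyosarcoma soft-agarose colony assay. 10^4 trypsin/EDTA-dissociated cells in 0.3% agarose over a 0.5% agarose base, in DMEM with 10% FCS, at 37 °C and 5% CO2. Compound was applied in an upper medium layer on day 1 for 24 h, then washed out. Colonies >60 µm were counted after 7–9 days by tetrazolium stain and image analysis. Quadruplicates with vehicle controls, at least four concentrations up to 100 or 1000 µg/mL. IC50 from a monoexponential least-squares fit over at least three preparations, mean ± SE.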

In series [9] the test system is Mus musculus. The series can be described thus: In vivo antitumor activity against P388 Lymphocytic Leukemia measured as Survivors on day 5 at 200 mg/kg, w.r.t. compound 6; 6/6.
Series [10] has as its system Mus musculus. The series is described as follows: In vivo antitumor activity against P388 Lymphocytic Leukemia measured as Survivors on day 5 at 25 mg/kg; 6/6.
Series [11] deals with Mus musculus. The series is described as follows: In vivo antitumor activity against P388 Lymphocytic Leukemia measured as Survivors on day 5 at 100 mg/kg; 6/6.
The subject of series [12] is Mus musculus. The series can be described thus: In vivo antitumor activity against P388 Lymphocytic Leukemia measured as Survivors on day 5 at 12.5 mg/kg; 6/6.
Series [13] deals with Mus musculus. The series is described as follows: In vivo antitumor activity against P388 Lymphocytic Leukemia measured as Survivors on day 5 at 1600 mg/kg, w.r.t. compound 6; 6/6.
In series [14] the test system is Mus musculus. The series can be described thus: (§1) In vivo antitumor activity against P388 Lymphocytic Leukemia in mice at 100 mg/kg expressed as T/C value.
Series [15] deals with Mus musculus. The description is as §1. This is another data set of the same source.
Series [16] concerns Mus musculus. The series can be described thus: In vivo antitumor activity against P388 Lymphocytic Leukemia in mice at 400 mg/kg expressed as T/C value w.r.t. compound 6.
The subject of series [17] is Mus musculus. The series is described as follows: In vivo antitumor activity against P388 Lymphocytic Leukemia measured as Survivors on day 5 at 800 mg/kg, w.r.t. compound 6; 6/6.
Series [18] concerns Mus musculus. The series can be described thus: In vivo antitumor activity against P388 Lymphocytic Leukemia measured as survivors on day 5 at 100 mg/kg; 5/5.
Series [19] concerns Mus musculus. The series is described as follows: In vivo antitumor activity against P388 Lymphocytic Leukemia measured as survivors on day 5 at 12.5 mg/kg; 6/6.
For series [20], the system named is Mus musculus. The series is described as follows: In vivo antitumor activity against P388 Lymphocytic Leukemia measured as survivors on day 5 at 200 mg/kg; 6/6.
In series [21] the test system is Mus musculus. The series can be described thus: In vivo antitumor activity against P388 Lymphocytic Leukemia measured as survivors on day 5 at 25 mg/kg; 6/6.
Series [22] concerns Mus musculus. The series can be described thus: In vivo antitumor activity against P388 Lymphocytic Leukemia measured as survivors on day 5 at 50 mg/kg; 6/6.
The test system of series [23] is Mus musculus. The series is described as follows: (§2) In vivo antitumor activity against P388 Lymphocytic Leukemia in mice at 12.5 mg/kg expressed as T/C value.
In series [24] the test system is Mus musculus. The series is described as §2. This is another data set of the same source.
The test system of series [25] is Mus musculus. The series is described as follows: In vivo antitumor activity against P388 Lymphocytic Leukemia in mice at 200 mg/kg expressed as T/C value w.r.t. compound 6.
Series [26] relates to Mus musculus. The series is described as follows: (§3) In vivo antitumor activity against P388 Lymphocytic Leukemia in mice at 25 mg/kg expressed as T/C value.
Series [27] deals with Mus musculus. The description is as §3. The source holds these as a separate data set.
Series [28] deals with Mus musculus. The series is described as follows: In vivo antitumor activity against P388 Lymphocytic Leukemia measured as Survivors on day 5 at 400 mg/kg, w.r.t. compound 6; 6/6.
The subject of series [29] is Mus musculus. The series is described as follows: In vivo antitumor activity against P388 Lymphocytic Leukemia measured as Survivors on day 5 at 50 mg/kg; 6/6.
For series [30], the system named is Mus musculus. The series can be described thus: In vivo antitumor activity against P388 Lymphocytic Leukemia measured as Survivors on day 5 at 6.25 mg/kg; 6/6.
The subject of series [31] is Mus musculus. The series can be described thus: In vivo antitumor activity against P388 Lymphocytic Leukemia in mice at 50 mg/kg expressed as T/C value.
Series [32] concerns Mus musculus. The series can be described thus: In vivo antitumor activity against P388 Lymphocytic Leukemia in mice at 6.25 mg/kg expressed as T/C value.
Series [33] relates to Mus musculus. The series is described as follows: In vivo antitumor activity against P388 Lymphocytic Leukemia in mice at 800 mg/kg expressed as T/C value.
The subject of series [34] is Mus musculus. The series can be described thus: In vivo antitumor activity against P388 Lymphocytic Leukemia in mice expressed as T/C value.
In series [35] the test system is Mus musculus. The series is described as follows: Weight difference when tested in vivo for antitumor activity against P388 Lymphocytic Leukemia w.r.t. compound 6.

For the compound `CC[C@](O)(C(=O)O[C@H]1CC[N+]2([O-])CC=C(CO)[C@H]12)c1ccccc1` (stereo partly specified), the Survivors worked out at 6 in the series on Mus musculus [1], 6 with Mus musculus [2], 6 in the series on Mus musculus [3] and 5 in the series with Mus musculus [7]. In addition, the T/C with Mus musculus [4] amounted to 106%; in the series with Mus musculus [5], 106%; with Mus musculus [6], 100%; in the series with Mus musculus [8], 106%. In the series on A204, the IC50 is 9 µg/mL (≈ 27 µM).

As to `CC(O)(C(=O)OCC1=CC[N+]2([O-])CCC(O)C12)c1ccccc1` (stereo unspecified), the Survivors with Mus musculus [9], with Mus musculus [10], in the series on Mus musculus [11], in the series on Mus musculus [12], in the series with Mus musculus [13] and with Mus musculus [17] was 6 in each case. In addition, the Survivors with Mus musculus [18] was 5; in the series on Mus musculus [19], 6; in the series with Mus musculus [20] it was 6; in the series on Mus musculus [21] it was 6; with Mus musculus [22], 6; with Mus musculus [28], 6. Moreover, the Survivors with Mus musculus [29] and in the series on Mus musculus [30] was 6 throughout. For the same compound, the T/C with Mus musculus [14] turned out to be 198%; in the series with Mus musculus [15], 180%; with Mus musculus [16], 175%; with Mus musculus [23] it was 136%; with Mus musculus [24], 105%; in the series on Mus musculus [25] it was 152%. Besides, the T/C is 139% in the series on Mus musculus [26]; 96% in the series on Mus musculus [27]; 140% in the series on Mus musculus [31]; 105% in the series with Mus musculus [32]; 196% in the series on Mus musculus [33]; 166% in the series on Mus musculus [34]. Besides, the Weight change in the series with Mus musculus [35] was -2.6 [middle of 4 runs].
